In the experiment the test system is GFP-expressing HuCCT1 cells. The experiment is described as follows: Formation of tubular bile duct-like structure in microfluidic device. It is filed as cell-based, human. The conditions noted are these: 10 ng/mL in culture medium, 4 days, lower layer flow path. The procedure: GFP-expressing HuCCT1 cells were seeded in the lower layer flow path of the microfluidic device in the presence or absence of 10 ng/mL of DLL1 or DLL4, and after 4 days, a cross-sectional image of the microfluidic device was acquired.
In FIG. 18, each arrow indicates a region in which the GFP-expressing HuCCT1 cells are not present, and “Control” indicates the results in the absence of DLL1 and DLL4.

B1: DLL1: recombinant human Delta Like Canonical Notch Ligand 1, lumenization factor (protein, UniProt O00548 18-723, looked up)
Delta-like protein 1: QVWSSGVFELKLQEFVNKKGLLGNRNCCRGGAGPPPCACRTFFRVCLKHYQASVSPEPPCTYGSAVTPVLGVDSFSLPDGGGADSAFSNPIRFPFGFTWPGTFSLIIEALHTDSPDDLATENPERLISRLATQRHLTVGEEWSQDLHSSGRTDLKYSYRFVCDEHYYGEGCSVFCRPRDDAFGHFTCGERGEKVCNPGWKGPYCTEPICLPGCDEQHGFCDKPGECKCRVGWQGRYCDECIRYPGCLHGTCQQPWQCNCQEGWGGLFCNQDLNYCTHHKPCKNGATCTNTGQGSYTCSCRPGYTGATCELGIDECDPSPCKNGGSCTDLENSYSCTCPPGFYGKICELSAMTCADGPCFNGGRCSDSPDGGYSCRCPVGYSGFNCEKKIDYCSSSPCSNGAKCVDLGDAYLCRCQAGFSGRHCDDNVDDCASSPCANGGTCRDGVNDFSCTCPPGYTGRNCSAPVSRCEHAPCHNGATCHERGHRYVCECARGYGGPNCQFLLPELPPGPAVVDLTEKLEGQGGPFPWVAVCAGVILVLMLLLGCAAVVVCVRLRLQKHRPPADPCRGETETMNNLANCQREKDISVSIIGATQIKNTNKKADFHGDHSADKNGFKARYPAVDYNLVQDLKGDDTAVRDAHSKRDTKCQPQGSSGEEKGTPTTLRGGEASERKRPDSGCSTSKDTKYQSVYVISEEKDECVIATEV
As to B1, the “formation of the tubular bile duct-like structure” value is reported as “accelerates the formation of the tubular bile duct-like structure”.

The values are drawn from patent US20240150691A1, “BILE DUCT CHIP AND USE THEREOF” (Kyoto University, priority 2021, published 2024).
